How the values were obtained:
[1] = BBB permeability to Evans Blue following stress, adrenaline or atropine (Example 2); conditions: following stress or 10 minutes after ip adrenaline or atropine
brain AChE = experiment: brain (cortical) AChE activity after injection in mice; assay type: in vivo, mouse

Structure (SMILES)	BBB permeability to Evans Blue [1]	inhibition of brain AChE activity (brain AChE; non-stressed mice, similar doses (0.1-0.5 mg/kg))	AChE activity in cerebral cortex, % of normal level (brain AChE; stressed mice, 0.1 mg/kg)
CNCC(O)c1ccc(O)c(O)c1 (stereo not drawn) [adrenaline]	enhanced BBB permeability		
CNC(=O)Oc1ccc2c(c1)[C@]1(C)CCN(C)[C@@H]1N2C [physostigmine]		more than 50%	< 50%
